Experiments:
[1] = target: HiBit-BRG1 fusion protein in stable HeLa cell line expressing HiBit-BRG1 and LgBit (Homo sapiens, UniProt P51532); experiment: HiBiT-BRG1 cell-based degradation assay (Nano-Glo HiBiT, 24 h); conditions: for BRG1 HiBit Degradation Maximum (%): HeLa HiBit-BRG1/LgBit cells, top dose 30 μM; for IC50: read-out: BRMG1 HiBit Degradation IC50, HeLa HiBit-BRG1/LgBit cells
[2] = target: HiBiT-BRM fusion protein in stable HeLa cell line (Homo sapiens, UniProt P51531); experiment: HiBiT-BRM cell-based degradation assay (Nano-Glo HiBiT Lytic Detection, 24 h); conditions: for BRM HiBit Degradation Maximum (%): HeLa HiBiT-BRM cells, top dose 30 μM; for IC50: read-out: BRM HiBit Degradation IC50, HeLa HiBiT-BRM cells
Description: Procedure: A stable HeLa cell line expressing HiBiT-BRM was generated. On day 0, 5000 cells were seeded in 40 μL of media into each well of 384-well cell culture plates. On day 1, cells were treated with 120 nL DMSO or 120 nL of 3-fold serially DMSO-diluted compounds (10 points in duplicate with 30 μM as final top dose). Subsequently plates were incubated for 24 h in a standard tissue culture incubator and equilibrated at room temperature for 15 minutes. Nano-Glo HiBiT Lytic Detection System (Promega N3050) reagent was freshly prepared and 20 ul was added to each well. Upon addition of this LgBit-containing reagent, the HiBiT and LgBiT proteins associate to form the luminescent NanoBiT luciferase. The plates were shaken for 10 minutes at room temperature and the bioluminescence read using an EnVision plate reader (PerkinElmer).
The degradation % was calculated using the following formula: % degradation=100%−100%×(Lumsample−LumLC)/(LumHC−LumLC). DMSO treated cells are employed as High Control (HC) and 2 μM of a known BRM/BRG1 degrader standard treated cells are employed as Low Control (LC).

The chains behind the UniProt entries cited, without tags or fusion partners.
UniProt P51532, whole entry: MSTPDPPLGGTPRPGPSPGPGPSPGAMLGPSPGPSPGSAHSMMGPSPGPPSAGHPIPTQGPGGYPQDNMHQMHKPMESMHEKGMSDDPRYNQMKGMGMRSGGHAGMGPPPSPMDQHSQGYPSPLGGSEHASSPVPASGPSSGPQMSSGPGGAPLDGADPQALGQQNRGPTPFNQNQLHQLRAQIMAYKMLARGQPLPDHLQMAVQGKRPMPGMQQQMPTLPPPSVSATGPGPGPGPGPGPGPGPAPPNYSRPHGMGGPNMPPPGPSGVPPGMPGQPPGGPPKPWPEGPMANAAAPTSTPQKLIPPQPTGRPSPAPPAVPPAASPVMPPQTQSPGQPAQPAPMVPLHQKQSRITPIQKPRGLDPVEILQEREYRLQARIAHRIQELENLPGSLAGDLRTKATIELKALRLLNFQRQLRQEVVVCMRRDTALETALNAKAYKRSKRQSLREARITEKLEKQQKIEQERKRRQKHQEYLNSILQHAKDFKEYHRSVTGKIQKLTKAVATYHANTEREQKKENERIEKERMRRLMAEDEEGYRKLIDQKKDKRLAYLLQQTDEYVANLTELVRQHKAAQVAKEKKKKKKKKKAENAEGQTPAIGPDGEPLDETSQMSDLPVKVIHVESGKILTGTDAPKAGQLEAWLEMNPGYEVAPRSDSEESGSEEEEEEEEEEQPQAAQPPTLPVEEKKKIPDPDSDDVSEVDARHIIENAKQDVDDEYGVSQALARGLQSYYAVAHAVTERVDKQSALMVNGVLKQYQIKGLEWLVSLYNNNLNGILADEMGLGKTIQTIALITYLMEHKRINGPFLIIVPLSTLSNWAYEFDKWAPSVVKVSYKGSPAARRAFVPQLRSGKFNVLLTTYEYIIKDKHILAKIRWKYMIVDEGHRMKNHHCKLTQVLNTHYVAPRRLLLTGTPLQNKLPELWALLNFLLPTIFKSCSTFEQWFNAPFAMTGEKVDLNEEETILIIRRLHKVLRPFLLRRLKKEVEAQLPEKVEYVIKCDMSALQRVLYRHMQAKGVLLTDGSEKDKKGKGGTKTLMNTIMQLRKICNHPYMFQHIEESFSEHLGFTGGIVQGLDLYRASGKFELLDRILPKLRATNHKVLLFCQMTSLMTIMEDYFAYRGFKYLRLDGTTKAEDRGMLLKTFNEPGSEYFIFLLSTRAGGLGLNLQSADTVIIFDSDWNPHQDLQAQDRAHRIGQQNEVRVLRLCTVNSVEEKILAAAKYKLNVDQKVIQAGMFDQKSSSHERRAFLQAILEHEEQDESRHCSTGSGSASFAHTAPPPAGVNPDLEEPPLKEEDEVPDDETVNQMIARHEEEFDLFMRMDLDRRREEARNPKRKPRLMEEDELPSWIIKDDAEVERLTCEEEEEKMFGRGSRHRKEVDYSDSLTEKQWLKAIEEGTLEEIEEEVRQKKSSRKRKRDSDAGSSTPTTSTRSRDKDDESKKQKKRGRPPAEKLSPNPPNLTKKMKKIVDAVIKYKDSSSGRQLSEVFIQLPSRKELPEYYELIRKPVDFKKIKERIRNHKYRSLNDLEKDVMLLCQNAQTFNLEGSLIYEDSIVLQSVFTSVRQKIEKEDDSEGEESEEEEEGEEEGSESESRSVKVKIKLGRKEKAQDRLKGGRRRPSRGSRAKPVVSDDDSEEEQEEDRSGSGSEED
UniProt P51531, whole entry: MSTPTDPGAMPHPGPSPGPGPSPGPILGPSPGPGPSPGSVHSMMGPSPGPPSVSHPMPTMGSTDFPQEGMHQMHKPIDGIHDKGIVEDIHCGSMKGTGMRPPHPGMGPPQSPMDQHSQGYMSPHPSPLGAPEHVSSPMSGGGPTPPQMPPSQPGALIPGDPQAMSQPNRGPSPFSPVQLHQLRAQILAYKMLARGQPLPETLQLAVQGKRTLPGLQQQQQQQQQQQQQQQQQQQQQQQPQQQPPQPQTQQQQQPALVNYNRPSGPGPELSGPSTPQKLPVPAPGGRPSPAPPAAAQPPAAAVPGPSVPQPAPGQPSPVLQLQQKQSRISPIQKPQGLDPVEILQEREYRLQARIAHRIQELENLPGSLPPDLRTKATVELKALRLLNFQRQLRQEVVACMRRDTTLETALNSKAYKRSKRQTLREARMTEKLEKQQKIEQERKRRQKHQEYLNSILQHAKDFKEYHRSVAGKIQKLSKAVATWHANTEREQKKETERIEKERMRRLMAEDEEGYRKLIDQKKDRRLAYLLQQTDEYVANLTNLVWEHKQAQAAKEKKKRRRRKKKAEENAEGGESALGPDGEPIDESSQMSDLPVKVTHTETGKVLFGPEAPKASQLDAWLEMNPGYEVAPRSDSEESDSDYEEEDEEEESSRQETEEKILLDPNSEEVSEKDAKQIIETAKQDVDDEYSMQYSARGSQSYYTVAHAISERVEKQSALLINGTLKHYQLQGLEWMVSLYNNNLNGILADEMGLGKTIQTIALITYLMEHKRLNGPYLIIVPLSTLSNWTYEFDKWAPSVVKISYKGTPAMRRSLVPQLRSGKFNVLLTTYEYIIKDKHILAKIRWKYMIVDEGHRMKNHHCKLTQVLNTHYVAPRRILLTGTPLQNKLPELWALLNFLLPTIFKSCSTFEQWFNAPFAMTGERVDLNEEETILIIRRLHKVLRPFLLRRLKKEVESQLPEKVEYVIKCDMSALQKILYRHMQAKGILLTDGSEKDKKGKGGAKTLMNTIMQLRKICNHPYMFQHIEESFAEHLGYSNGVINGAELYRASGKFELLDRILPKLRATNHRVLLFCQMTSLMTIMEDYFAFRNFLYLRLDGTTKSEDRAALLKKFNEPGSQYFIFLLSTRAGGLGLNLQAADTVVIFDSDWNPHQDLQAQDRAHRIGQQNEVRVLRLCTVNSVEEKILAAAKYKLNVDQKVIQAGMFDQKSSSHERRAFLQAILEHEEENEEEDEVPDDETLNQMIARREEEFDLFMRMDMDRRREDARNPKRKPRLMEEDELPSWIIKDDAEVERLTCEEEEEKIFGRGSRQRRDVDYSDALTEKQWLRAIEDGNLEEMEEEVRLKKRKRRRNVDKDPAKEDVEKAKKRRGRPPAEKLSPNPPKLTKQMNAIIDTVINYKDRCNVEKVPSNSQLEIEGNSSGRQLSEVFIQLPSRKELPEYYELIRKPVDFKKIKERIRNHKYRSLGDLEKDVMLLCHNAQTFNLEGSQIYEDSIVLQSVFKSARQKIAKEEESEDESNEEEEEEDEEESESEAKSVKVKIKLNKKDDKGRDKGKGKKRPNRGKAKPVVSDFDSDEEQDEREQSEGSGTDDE

IC50 [1] [nM] | IC50 [2] [nM] | Compound | BRG1 HiBit Degradation Maximum (%) [1] | BRM HiBit Degradation Maximum (%) [2]
< 10 | < 10 | Cc1cc2nnc(-c3ccccc3O)cc2cc1-c1cn([C@H](C(=O)N2C[C@H](O)C[C@H]2C(=O)N[C@@H](C)c2ccc(-c3scnc3C)cc2)C(C)C)nn1 | A (“A” indicates maximum degradation ≥75%) | A (“A” indicates maximum degradation ≥75%)
< 10 | < 10 | Cc1ncsc1-c1ccc(CNC(=O)[C@@H]2C[C@@H](O)CN2C(=O)[C@@H](c2cc(-c3ccc4nnc(-c5ccccc5O)cc4c3)no2)C(C)C)cc1 | A (“A” indicates maximum degradation ≥75%) | A (“A” indicates maximum degradation ≥75%)
 | < 10 | Cc1ncsc1-c1ccc([C@H](C)NC(=O)[C@@H]2C[C@@H](O)CN2C(=O)[C@@H](c2cc(N3CCN([C@@H]4CCN(Cc5ccc6cc(-c7ccccc7O)nnc6c5)CC4(F)F)CC3)no2)C(C)C)cc1 | C (“C” indicates maximum degradation <50%) | A (“A” indicates maximum degradation ≥75%)
 | < 10 | Cc1ncsc1-c1ccc([C@H](C)NC(=O)[C@@H]2C[C@@H](O)CN2C(=O)[C@@H](c2cc(N3CCN([C@H]4CCN(Cc5ccc6cc(-c7ccccc7O)nnc6c5)CC4(F)F)CC3)no2)C(C)C)cc1 | C (“C” indicates maximum degradation <50%) | A (“A” indicates maximum degradation ≥75%)

Reference: US20260193264A1, “BENZOYPARAZINE PYRAZINES AND THEIR USES” (FOGHORN THERAPEUTICS INC., priority 2022, published 2026)
